# Experimental data as given in US6936585B2, “Corticotropin releasing factor 2 receptor agonists” (priority 2002, dated 2005).
# Legend:
# CRF1R = target: T1, CRF1R (Homo sapiens, UniProt P34998); test: CRF1R agonist activation (EC50 / Emax), called comparative CRF binding; assay type: cell-based; conditions: for Emax: read-out: CRF1R Emax
# T1 sequence (P34998 24-415): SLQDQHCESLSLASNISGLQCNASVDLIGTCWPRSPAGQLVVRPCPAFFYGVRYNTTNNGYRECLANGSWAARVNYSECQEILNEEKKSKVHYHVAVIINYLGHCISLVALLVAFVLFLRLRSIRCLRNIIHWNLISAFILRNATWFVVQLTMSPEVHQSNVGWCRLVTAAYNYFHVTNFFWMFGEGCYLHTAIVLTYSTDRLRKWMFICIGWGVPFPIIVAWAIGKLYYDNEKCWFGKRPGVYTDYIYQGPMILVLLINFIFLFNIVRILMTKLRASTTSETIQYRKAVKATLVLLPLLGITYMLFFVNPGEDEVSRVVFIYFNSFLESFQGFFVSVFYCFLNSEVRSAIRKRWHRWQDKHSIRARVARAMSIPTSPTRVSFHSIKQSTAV
# Method in brief: (§1)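 Agonism is scored from cAMP rise, assayed in lysates or through CRE-driven reporter expression, after peptide contact with cells bearing human CRF2R or CRF1R, compared against vehicle-treated cells.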
# CRF2R = target: T2, CRF2R (Homo sapiens, UniProt Q13324); test: CRF2R agonist activation (EC50 / Emax), called comparative CRF binding; assay type: cell-based; conditions: for Emax: read-out: CRF2R Emax
# T2 sequence (Q13324 1-411): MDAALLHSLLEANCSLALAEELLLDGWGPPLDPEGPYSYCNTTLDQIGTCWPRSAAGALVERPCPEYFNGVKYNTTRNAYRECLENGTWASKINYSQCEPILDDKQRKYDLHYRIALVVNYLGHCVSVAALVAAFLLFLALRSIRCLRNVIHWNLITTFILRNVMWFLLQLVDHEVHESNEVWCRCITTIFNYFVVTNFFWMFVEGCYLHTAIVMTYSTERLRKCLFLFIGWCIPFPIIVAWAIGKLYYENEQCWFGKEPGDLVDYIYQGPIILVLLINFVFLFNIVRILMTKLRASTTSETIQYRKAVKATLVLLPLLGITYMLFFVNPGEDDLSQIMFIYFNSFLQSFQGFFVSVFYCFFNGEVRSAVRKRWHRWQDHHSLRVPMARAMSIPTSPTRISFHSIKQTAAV
# Method in brief: as §1
Structure (SMILES),Emax (CRF1R) [%],Emax (CRF2R) [%],EC50 (CRF1R; CRF1R EC50) [nM],EC50 (CRF2R) [nM]
CC[C@H](C)[C@H](NC(=O)[C@H](Cc1c[nH]cn1)NC(=O)[C@H](C)NC(=O)[C@H](CC(C)C)NC(=O)[C@H](CC(C)C)NC(=O)[C@H](Cc1c[nH]cn1)NC(=O)[C@H](C)NC(=O)[C@H](CC(N)=O)NC(=O)[C@H](CC(N)=O)NC(=O)[C@H](C)NC(=O)[C@H](C)NC(=O)[C@H](CCC(N)=O)NC(=O)[C@H](CCC(N)=O)NC(=O)[C@H](CCCCN)NC(=O)[C@H](CCC(=O)O)NC(=O)[C@H](CCCCN)NC(=O)[C@H](CCC(=O)O)NC(=O)[C@H](CCC(N)=O)NC(=O)[C@H](CCCCN)NC(=O)[C@H](CCC(=O)O)NC(=O)[C@@H](NC(=O)[C@H](CCC(=O)O)NC(=O)[C@@H](NC(=O)[C@@H](NC(=O)[C@H](CCCCN)NC(=O)[C@H](CCCNC(=N)N)NC(=O)[C@H](CC(C)C)NC(=O)[C@H](CC(C)C)NC(=O)[C@H](CCC(N)=O)NC(=O)[C@H](Cc1ccccc1)NC(=O)[C@@H]1CCCN1C(=O)[C@H](CC(C)C)NC(=O)[C@H](CC(=O)O)NC(=O)[C@@H](NC(=O)[C@H](CO)NC(=O)[C@@H](NC(=O)[C@@H]1CCCN1C(=O)[C@@H]1CCCN1C(=O)CNC(=O)[C@@H]1CCC(=O)N1)[C@@H](C)CC)[C@@H](C)CC)C(C)C)[C@@H](C)CC)[C@@H](C)CC)C(N)=O [compound 277],39.9,100,,
CC[C@H](C)[C@H](NC(=O)[C@H](CCCNC(=N)N)NC(=O)[C@H](C)NC(=O)[C@H](CC(N)=O)NC(=O)[C@@H](NC(=O)[C@@H](NC(=O)[C@H](C)NC(=O)[C@H](CCC(N)=O)NC(=O)[C@H](CCC(N)=O)NC(=O)[C@H](CCCCN)NC(=O)[C@H](CCC(=O)O)NC(=O)[C@H](CCCCN)NC(=O)[C@H](CCC(=O)O)NC(=O)[C@H](CCC(N)=O)NC(=O)[C@H](CCCCN)NC(=O)[C@H](CCC(=O)O)NC(=O)[C@@H](NC(=O)[C@H](CCC(=O)O)NC(=O)[C@@H](NC(=O)[C@H](CCSC)NC(=O)[C@H](CCCCN)NC(=O)[C@H](CCCNC(=N)N)NC(=O)[C@H](CC(C)C)NC(=O)[C@H](CC(C)C)NC(=O)[C@H](Cc1ccc(O)cc1)NC(=O)[C@@H](NC(=O)[C@@H]1CCCN1C(=O)[C@@H](NC(=O)[C@H](CC(=O)O)NC(=O)[C@@H](NC(=O)[C@H](CO)NC(=O)[C@@H](NC(=O)[C@@H]1CCCN1C(=O)[C@@H]1CCCN1C(=O)CNC(=O)[C@@H]1CCC(=O)N1)[C@@H](C)CC)[C@@H](C)CC)C(C)C)[C@@H](C)O)[C@@H](C)CC)[C@@H](C)CC)[C@@H](C)O)[C@@H](C)O)C(=O)N[C@@H](CC(C)C)C(=O)N[C@@H](C)C(=O)N[C@@H](CCCNC(=N)N)C(=O)N[C@H](C(N)=O)C(C)C [compound 170],9,83,≥ 1000,75
CC[C@H](C)[C@H](NC(=O)[C@@H](NC(=O)[C@H](CC(=O)O)NC(=O)[C@H](CC(C)C)NC(=O)[C@H](CC(C)C)NC(=O)[C@H](CC(C)C)NC(=O)[C@H](CCCNC(=N)N)NC(=O)[C@H](CC(N)=O)NC(=O)[C@H](CC(N)=O)NC(=O)[C@H](C)NC(=O)[C@H](C)NC(=O)[C@H](CCC(N)=O)NC(=O)[C@H](CCC(N)=O)NC(=O)[C@H](CCCCN)NC(=O)[C@H](CCC(=O)O)NC(=O)[C@H](CCCCN)NC(=O)[C@H](CCC(=O)O)NC(=O)[C@H](CCC(N)=O)NC(=O)[C@H](CCCCN)NC(=O)[C@H](CCC(=O)O)NC(=O)[C@@H](NC(=O)[C@H](CCC(=O)O)NC(=O)[C@@H](NC(=O)[C@H](CCSC)NC(=O)[C@H](CCCCN)NC(=O)[C@H](CCCNC(=N)N)NC(=O)[C@H](CC(C)C)NC(=O)[C@H](CC(C)C)NC(=O)[C@H](CO)NC(=O)[C@@H](NC(=O)[C@@H]1CCCN1C(=O)[C@H](CC(C)C)NC(=O)[C@H](CC(=O)O)NC(=O)[C@@H](NC(=O)[C@H](CO)NC(=O)[C@@H](NC(=O)[C@@H]1CCCN1C(=O)[C@@H]1CCCN1C(=O)CNC(=O)[C@@H]1CCC(=O)N1)[C@@H](C)CC)[C@@H](C)CC)[C@@H](C)CC)[C@@H](C)CC)[C@@H](C)CC)[C@@H](C)O)C(N)=O [compound 53],19,95,,
CC[C@H](C)[C@H](NC(=O)[C@H](CCC(=O)O)NC(=O)[C@@H](NC(=O)[C@H](CCSC)NC(=O)[C@H](CCCCN)NC(=O)[C@H](CCCNC(=N)N)NC(=O)[C@H](CC(C)C)NC(=O)[C@H](CC(C)C)NC(=O)[C@H](Cc1c[nH]cn1)NC(=O)[C@H](CC(C)C)NC(=O)[C@@H]1CCCN1C(=O)[C@H](CC(C)C)NC(=O)[C@H](CC(=O)O)NC(=O)[C@@H](NC(=O)[C@H](CO)NC(=O)[C@@H](NC(=O)[C@@H]1CCCN1C(=O)[C@@H]1CCCN1C(=O)CNC(=O)[C@@H]1CCC(=O)N1)[C@@H](C)CC)[C@@H](C)CC)[C@@H](C)CC)C(=O)N[C@@H](CCC(=O)O)C(=O)N[C@@H](CCCCN)C(=O)N[C@@H](CCC(N)=O)C(=O)N[C@@H](CCC(=O)O)C(=O)N[C@@H](CCCCN)C(=O)N[C@@H](CCC(=O)O)C(=O)N[C@@H](CCCCN)C(=O)N[C@@H](CCC(N)=O)C(=O)N[C@@H](CCC(N)=O)C(=O)N[C@@H](C)C(=O)N[C@H](C(=O)N[C@H](C(=O)N[C@@H](CC(N)=O)C(=O)N[C@@H](C)C(=O)N[C@@H](CCCNC(=N)N)C(=O)N[C@@H](CC(C)C)C(=O)N[C@@H](CC(C)C)C(=O)N[C@@H](CC(=O)O)C(=O)N[C@H](C(=O)N[C@H](C(N)=O)C(C)C)[C@@H](C)O)[C@@H](C)O)[C@@H](C)O [compound 238],88,100,,
CC[C@H](C)[C@H](NC(=O)[C@@H](NC(=O)[C@H](CC(=O)O)NC(=O)[C@H](CC(C)C)NC(=O)[C@H](CC(C)C)NC(=O)[C@H](CC(C)C)NC(=O)[C@H](CCCNC(=N)N)NC(=O)[C@H](CC(N)=O)NC(=O)[C@H](CC(N)=O)NC(=O)[C@H](C)NC(=O)[C@H](C)NC(=O)[C@H](CCC(N)=O)NC(=O)[C@H](CCC(N)=O)NC(=O)[C@H](CCCCN)NC(=O)[C@H](CCC(=O)O)NC(=O)[C@H](CCCCN)NC(=O)[C@H](CCC(=O)O)NC(=O)[C@H](CCC(N)=O)NC(=O)[C@H](CCCCN)NC(=O)[C@H](CCC(=O)O)NC(=O)[C@@H](NC(=O)[C@H](CCC(=O)O)NC(=O)[C@@H](NC(=O)[C@H](CCSC)NC(=O)[C@H](CCCCN)NC(=O)[C@H](CCCNC(=N)N)NC(=O)[C@H](CC(C)C)NC(=O)[C@H](CC(C)C)NC(=O)[C@H](Cc1ccc(O)cc1)NC(=O)[C@H](CC(N)=O)NC(=O)[C@@H]1CCCN1C(=O)[C@H](CC(C)C)NC(=O)[C@H](CC(=O)O)NC(=O)[C@@H](NC(=O)[C@H](CO)NC(=O)[C@@H](NC(=O)[C@@H]1CCCN1C(=O)[C@@H]1CCCN1C(=O)CNC(=O)[C@@H]1CCC(=O)N1)[C@@H](C)CC)[C@@H](C)CC)[C@@H](C)CC)[C@@H](C)CC)[C@@H](C)O)C(N)=O [compound 64],57,94,,
